The conditions of the data set: 20 mg/kg (1 : 0), gavage, plasma; analyte deuterated dextromethorphan.

For `[2H]C([2H])([2H])Oc1ccc2c(c1)[C@]13CCCC[C@@H]1[C@H](C2)N(C([2H])([2H])[2H])CC3` [Deuterated dextromethorphan], the AUClast stood at 387 h^∗ng/ ml.
